Experimental data: US20170197977A9, “COMPOSITIONS AND METHODS FOR TREATING NEURODEGENERATIVE DISEASE” (COGNITION THERAPEUTICS, INC., priority 2011, published 2017)

Test: In vivo PK, plasma and brain levels
Parameters: species or system mouse
Conditions: mouse

## COc1cc(CCC(C)NCc2ccc(C(F)(F)F)cc2)ccc1O (stereo not shown) [Compound II]
  Brain penetrance: highly brain penetrant
